This assay concerns the target TsUCH37^cat (catalytic UCH domain of Trichinella spiralis UCH37, residues 1-226) (Trichinella spiralis).

With “UbAMC (ubiquitin aminomethylcoumarin) (from UniProt P0CG48 1-76)”, the KM of UbAMC hydrolysis (Michaelis-Menten fit; 7 nM enzyme, 30°C) was found to be 1.08 µM.

Values taken from article PMC3898853.
